High-throughput results deposited in PubChem by National Center for Advancing Translational Sciences (NCATS).
Nrf2 inh: Nrf2 pathway inhibition | A549 ARE-Fluc reporter, luciferase luminescence, 18-24 h | Potency, µM (highest dose often 46 µM), inactives show at the highest dose activity change, negative = inhibition, usual class: inhibitors | hit rate 2.1% among 360,000; also: potency is read from the fitted curve at half-maximal effect; % is scaled to controls: 0 for no effect and ±100 for the full control effect; nearly all actives have a fitted effect of over 60% in size
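Concentration-response testing used A549 ARE_Fluc cells at 5000 cells/well. Following an 18-24 h compound incubation, viability was read by fluorescence (Ex 405/Em 525) and luciferase output by luminescence.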
ClpP mod: qHTS Assay for Activators of ClpP; purified B. subtilis ClpP, FRET peptide cleavage, 20 min; ATP-dependent Clp protease proteolytic subunit (Bacillus subtilis (strain 168)), P80244; hit rate 1.9% among 340,000; Potency, µM (series often up to 57.5 µM), for the others: top-dose activity change, negative = active; active = well fitted falling curve with a large enough effect; inconclusive = small, poorly fitted or top-dose-only effect; inactive = no such curve, though single readings can be large or run the other way; also: potency is read from the fitted curve at half-maximal effect; the source files actives as falling curves though it sought activators and does not explain the sign; nearly all actives have a fitted effect of over 65% in size
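Buffer: 100 mM Tris/HCl pH8, 100 mM KCl, 0.05% low protease BSA, 2.5% glycerol, 0.01% Tween-20. ClpP 10 microg/mL final; 20 min RT; delta FRET normalized to ADEP and DMSO controls.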
p53 reactivation: mutant p53 re-activation in reporter cells; hit rate 0.063% among 320,000; H1299 p53-A138V BP100-luciferase reporter, luminescence, 24 h; Potency, µM (series often up to 92.2 µM), for inactives: at the top dose activity change, positive = activation, most hits filed as activators; also: potency is read from the fitted curve at half-maximal effect; % of control where 0% means no effect; nearly all actives have a fitted effect of over 45% in size
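p53-null H1299 cells stably carrying temperature-sensitive p53-A138V and a BP100-luciferase reporter were pinned with compounds (4-point, 1:5 series) and held 24 hrs at 37 deg C. Luminescence was read 10 min after detection reagent.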
A549 viability: kills or reduces viability of A549 cells in Nrf2 counter-screen. A549 ARE-Fluc cells, CellTiter-Fluor viability, 18-24 h. Potency, µM (series often up to 46 µM), without a hit: top-dose activity change, negative = cytotoxicity, hits mostly inhibitors. hit rate 0.16% among 390,000. AID 504648; also: potency is read from the fitted curve at half-maximal effect; % is scaled to controls: 0 for no effect and ±100 for the full control effect
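A549 ARE_Fluc cells in 5% FBS OPTI-MEM were exposed to compounds in concentration-response for 18-24 h at 37 deg C. Viability was read by CellTiter-Fluor fluorescence (Ex 405/Em 525) after 30 min, before the luciferase read.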
Nrf2 ARE act: activators of Nrf2 (ARE) signaling; hit rate 0.31% among 410,000; AREc32 ARE-luciferase reporter (MCF7-derived line), luminescence, 24 h; Potency, µM (titrated, usually from 46.1 µM), for inactives: at the highest dose activation, usual class: activators; also: potency is read from the fitted curve at half-maximal effect; % of control where 0% means no effect; nearly all actives have a fitted effect of over 65% in size
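Cells of the AREc32 ARE-luciferase line are plated in OPTI-MEM containing 5% FBS and left overnight at 37 deg C. Compounds are pinned in, incubation continues 24 hr, and firefly luciferase signal is then measured.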
miR-21 FLuc: miR-21 reporter, rising signal | HeLa miR-21 FLuc reporter, luciferase, 48 h | Potency, µM (top dose mostly 38.3 µM), inactives show at the top dose reporter change, positive = more light | 340,000 tested, under 10 active | AID 2288; active = well fitted rising curve with a large enough effect; inconclusive = small, poorly fitted or top-dose-only effect; inactive = no such curve, though single readings can be large or run the other way;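 further: % of control where 0% means no effect; miR-21 action dims this reporter so a rising signal means less miR-21 action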
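HeLa miR-21-FLuc reporter line, endogenous miR-21; 2000 cells/well in DMEM/10% FBS; compound titration up to ~40uM final, 48 h, 37 degree Celsius; luciferase detection reagent, 15 min lysis, CCD luminescence.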
Numbers without * were called inactive; u = inconclusive; x = no result given; [ ] = dose if it differs, or a comment. Most compounds without a hit are left out; they make up all but 3.7% or so of the library. Unless noted, calls follow the shape of the dose curve; as a rule, active = well fitted curve in the direction sought with a large enough effect; inconclusive = small, poorly fitted or top-dose-only effect, or another doubt; inactive = no such curve, though single readings can be large; an effect the other way counts as inactive or inconclusive.

SMILES	Nrf2 inh	ClpP mod	p53 reactivation	A549 viability	Nrf2 ARE act	miR-21 FLuc
O=Cc1cccc(C=O)c1	x	-1%	x	x	x	x
O=C(Nc1c(C(=O)Nc2cccc(F)c2)oc2ccccc12)c1cc2ccccc2o1	u	3%	x	u	7%	-25%
COc1ccc(C(=O)O)cc1COc1ccc(NC(C)=O)cc1	8%	x	x	-1%	x	x
Cc1cc2oc(=O)cc(CN(C)Cc3ccccc3)c2cc1C	x	-5%	x	x	1%	x
CCc1ccc2oc(=O)cc(CN(C)Cc3ccccc3)c2c1	-6%	16µM*	-3%	5%	3%	-2%
CCCCN(C)Cc1cc(=O)oc2cc3c(cc12)CCCC3	-8%	14µM*	-2%	8%	3%	-15%
CCN(CCO)Cc1cc(=O)oc2cc3c(cc12)CCC3	-26%	-2%	0%	-7%	1%	-16%
Cc1sc(NC(=O)c2ccccc2F)c(CN2CCCCC2C)c1C (stereo not given)	u	3%	u	-2%	13µM*	-65%
COc1cc(C=O)cc(OC)c1[N+](=O)[O-]	x	-2%	x	x	x	x
COc1cc(OC)c(OC)cc1/C=N/NC(=O)CC1C(=O)NN=C1C (stereo not given)	-6%	28µM*	-4%	0%	0%	0%
O=C1CCCC2=C1C1(CCCC1)N=C(Nc1nc3ccccc3s1)N2	-8%	28µM*	1%	-13%[1.84 µM]	0%	2%
CC1=C(C(=O)Nc2ccc(C)cc2C)C(c2ccccc2C)n2ncnc2N1 (stereo not given)	x	-19%	x	7%	0%	4%

Single records (already shown).
Profile of O=C(Nc1c(C(=O)Nc2cccc(F)c2)oc2ccccc12)c1cc2ccccc2o1 = Nrf2 inh: u; ClpP mod: 3%; p53 reactivation: x; A549 viability: u; Nrf2 ARE act: 7%; miR-21 FLuc: -25%
Profile of COc1cc(C=O)cc(OC)c1[N+](=O)[O-] = Nrf2 inh: x; ClpP mod: -2%; p53 reactivation: x; A549 viability: x; Nrf2 ARE act: x; miR-21 FLuc: x

More structures follow.
SMILES	Nrf2 inh	ClpP mod	p53 reactivation	A549 viability	Nrf2 ARE act	miR-21 FLuc
COc1cccc(CN(C)C(=O)CNC(=O)c2sc3ccccc3c2Cl)c1OC	26µM*	-7%	-2%	-17%	3%	x
Nc1ccccc1C(=O)Nc1cccc(C(=O)O)c1	u	u	-5%	8%	-1%	-25%
CCNc1cc(S(=O)(=O)C(F)(F)F)ccc1N	12%	1%	4%	-1%	1%	-9%
CCc1ccccc1Nc1ccc(C(=O)O)cc1N	x	28µM*	u	6%	6%	-33%
Nc1cc(C(=O)O)ccc1Nc1ccccc1	u	10µM*	16%	-12%	0%	-22%
CCNc1ccc(C(=O)O)cc1N	24%	25µM*	u	-4%	0%	-47%
COc1ccc(C2c3c(n(CCc4ccccc4)cnc3=N)Oc3ccc4ccccc4c32)cc1OC (stereo not given)	2%	x	x	0%	x	x
COc1cc(-c2ccc(N3C(c4ccsc4)=Cc4ccccc4C3CC(C)=O)cc2)cc(OC)c1OC (stereo not given)	x	3%	x	x	0%	x
O=C(CSc1nc2c([nH]c3ccccc32)c(=O)n1-c1ccccc1)Nc1ccc2c(c1)OCO2	x	4%	x	-1%	5%	-4%
CCCNc1ncnc2c1c(-c1ccccc1)cn2-c1ccccc1	x	-16%	x	3%	5%	-7%
O=C(Nc1ccccc1Cl)c1cc2ccccc2o/c1=N\O	u	x	u	-5%	1.3µM*	-44%
O=S1(=O)N=C(Oc2ccccc2-c2ccccc2)c2ccccc21	7%	x	x	-5%	x	x
O=C(Nc1ccc(Cl)cc1)C1CCN(S(=O)(=O)c2ccc(Br)s2)CC1	23µM*	0%	x	-26%	9%	u
NS(=O)(=O)c1ccc2c(c1)C(=NO)c1cc(S(N)(=O)=O)ccc1-2	5%	x	u	0%	-1%	-4%
O=C1C(Cl)=C(NCCCO)C(=O)c2ccccc21	x	-2%	-14%	-20%	0%	13%
NC1=C(Cl)C(=O)c2ccc(S(N)(=O)=O)cc2C1=O	3.3µM*	5%	x	5.8µM*	-4%	x
NC1=C(Cl)C(=O)c2ccccc2C1=O	16µM*	1%	x	u	-3%	x
CCOC(=O)N1CCN([N+]([O-])=NOc2cc(O/N=[N+](\[O-])N(CC)CC)c([N+](=O)[O-])cc2[N+](=O)[O-])CC1	13%	x	x	-22%	x	x
C=C(C)n1c(=O)n(Cc2ccccc2C)c2ccccc21	2%	-1%	-5%	8%	0%	-15%
C=C(C)n1c(=O)n(Cc2ccc(C)cc2)c2ccccc21	16µM*	-4%	-5%	-22%	0%	-8%
COc1ccc(NC(=O)c2cc(C3CCCCN3C(=O)c3ccc(Cl)cc3)on2)c(C)c1 (stereo not given)	x	-2%	x	x	4%	x
COc1ccc(N2CC(C(=O)Nc3ccc(S(=O)(=O)N4CCCCC4)cc3)CC2=O)cc1 (stereo not given)	21µM*	1%	-6%	-1%	0%	0%
O=C(N/N=C/c1ccccc1O)C1CC(=O)N(c2ccc(Cl)cc2)C1 (stereo not given)	1%	-12%	32µM*	1%	-1%	25%
Cc1ccc(/C=N/NC(=O)C2CC(=O)N(c3ccccc3)C2)s1 (stereo not given)	12%	5%	23%	-4%	0%	-33%
O=C(Nc1cccc(Cl)c1Cl)C1CC(=O)N(c2ccc(Br)cc2)C1 (stereo not given)	7.3µM*	-2%	-3%	-12%[1.84 µM]	-1%	10%
O=C(Nc1ccc(S(=O)(=O)N2CCCCC2)cc1)C1CC(=O)N(c2ccc(Cl)cc2)C1 (stereo not given)	23µM*	-2%	-1%	u	1%	29%
Cc1ccc(N2CC(C(=O)Nc3ccc(S(=O)(=O)N4CCCC4)cc3)CC2=O)cc1 (stereo not given)	u	-1%	-11%	-9%	0%	-1%
CC(=O)Nc1ccc(S(=O)(=O)NCCc2cn3ccsc3n2)cc1	x	-7%	x	1%	-1%	-6%
O=C(OCC1CCCO1)c1ccc2c(c1)N(Cc1ccccc1F)C(=O)c1ccccc1S2(=O)=O (stereo not given)	7%	-3%	x	1%	0%	0%
COc1ccccc1CC(=O)NO	x	0%	x	x	x	x
CCCCn1c(=O)c2oc3ccccc3c2n(Cc2ccccc2C)c1=O	29%	-17%	x	10%	0%	-3%
O=C1c2cc([N+](=O)[O-])ccc2-c2cc(Br)c(N=C(NO)C(F)(F)F)cc21	10%	1%	x	-4%	13%	x
Cc1c(Cl)cccc1-n1ncc(C(=O)Nc2ccc(Br)cc2F)c1C1CCNCC1	27%	0%	x	2%	8%	10%
Cc1ccc(NC(=O)C2CCN(S(=O)(=O)c3ccc(N4CCCC4=O)cc3)CC2)cc1Cl	10µM*	x	-9%	-5%	0%	27%

Five entries out of the list, ordered by length of the SMILES, rising:
SMILES	Nrf2 inh	ClpP mod	p53 reactivation	A549 viability	Nrf2 ARE act	miR-21 FLuc
COc1ccccc1CC(=O)NO	x	0%	x	x	x	x
CC(=O)Nc1ccc(S(=O)(=O)NCCc2cn3ccsc3n2)cc1	x	-7%	x	1%	-1%	-6%
O=C(Nc1cccc(Cl)c1Cl)C1CC(=O)N(c2ccc(Br)cc2)C1 (stereo not given)	7.3µM*	-2%	-3%	-12%[1.84 µM]	-1%	10%
O=C1c2cc([N+](=O)[O-])ccc2-c2cc(Br)c(N=C(NO)C(F)(F)F)cc21	10%	1%	x	-4%	13%	x
O=C(OCC1CCCO1)c1ccc2c(c1)N(Cc1ccccc1F)C(=O)c1ccccc1S2(=O)=O (stereo not given)	7%	-3%	x	1%	0%	0%
